The target of this assay is δ opiate receptor (Cavia porcellus, UniProt A0A286XTF2). Nature of the assay: Opiate (δ) binding, [3H]DPDPE competitive radioligand binding. Details: species or system guinea pig.

Amino acid sequences for entries named in this document (tags omitted). A change or cut given only in a name is not applied to a line headed by its entry. Residues count along the entry.
UniProt A0A286XTF2, 1-366: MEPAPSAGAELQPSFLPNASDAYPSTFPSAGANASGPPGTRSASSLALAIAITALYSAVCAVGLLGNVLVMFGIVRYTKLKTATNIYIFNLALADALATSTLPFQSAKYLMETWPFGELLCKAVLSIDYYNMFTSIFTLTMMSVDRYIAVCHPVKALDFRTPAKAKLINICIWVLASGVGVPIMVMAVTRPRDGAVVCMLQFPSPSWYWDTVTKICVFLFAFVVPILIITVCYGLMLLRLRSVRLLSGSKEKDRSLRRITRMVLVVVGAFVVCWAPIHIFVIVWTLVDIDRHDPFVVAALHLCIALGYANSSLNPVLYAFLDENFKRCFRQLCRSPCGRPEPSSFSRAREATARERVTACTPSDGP

The structures appear in SMILES notation.

As usually defined, the IC50 is the concentration at which inhibition is half-maximal. As a reminder, the Ki is a measure of affinity in units of concentration, obtained from inhibition or displacement. Low values mean tighter binding, high ones weaker binding. `Oc1ccc2c3c1O[C@H]1c4[nH]c5ccccc5c4C[C@@]4(O)[C@@H](C2)N(CC2CC2)CC[C@]314` [Naltrindole] had an IC50 of 0.63 nM and a Ki of 0.2 nM.

For the origin of these results see patent publication US7598253B2, “Reverse-turn mimetics and methods relating thereto” (Myriad Genetics, Inc., priority 1995, dated 2009).
